Patent US20240043794A1, “Chemically Defined Serum Albumin Substitutes” (Life Technologies Corporation, priority 2020, published 2024)

Assays:
[1] = Superoxide Dismutase (SOD) Colorimetric Activity Kit; assay type: biochemical
Procedure: Various classes of antioxidant activity in albumins were investigated. Applicants first analyzed the superoxide dismutase (SOD) activity of various albumins, utilizing the Superoxide Dismutase (SOD) Colorimetric Activity Kit (Thermo Fisher Scientific, Waltham, MA), according to the manufacturer's protocol. Briefly, SOD activity was assessed utilizing an assay comprising the reaction of a substrate and Xanthine Oxidase to form superoxide (O^−2), the levels of which are decreased by SOD activity.
Next, the ability of chemically defined components to replace SOD antioxidant activity was tested. Mito-Tempo, which scavenges O2•^− in mitochondria, was compared with HSA for its ability to reduce superoxide, as assessed using the Superoxide Dismutase (SOD) Colorimetric Activity Kit (Thermo Fisher Scientific, Waltham, MA), according to the manufacturer's protocol. […] Thus, this compound may be used to replicate and replace albumin SOD-like antioxidant functionality.

[2] = Total antioxidant power, Ferric Antioxidant Status Detection Kit; assay type: biochemical
Procedure: The experiments described herein were performed to explore the physiological functions of albumins and to explore replacement of albumins with chemically defined components. First, antioxidant properties of albumins was analyzed. Total antioxidant power of various albumins was measured by the using the Ferric Antioxidant Status Detection Kit (Thermo Fisher Scientific, Waltham, MA), according to the manufacturer's protocol. […] As the use of plasma in culture media is source of blood origin contaminants, the elimination of serum and plasma is highly desirable.

[3] = Thiol-based antioxidant activity, Ellman's reagent (DTNB); assay type: biochemical
Excerpt: Albumin has a cysteine residue at position 34, which exists either as a free thiol or may form a disulfide bond with glutathione (GSH). Because glutathione peroxidase uses GSH as a reductant to remove H2O2, a powerful oxidizing agent that is potentially damaging to cells, albumins play a pivotal role in regulating intracellular levels of GSH. Using Ellman's reagent (DTNB, 5,5-dithio-bis-(2-nitrobenzoic acid)), which produces 1,3,5-Trinitrobenzene (TNB) in the presence of thiols, various albumins were tested for thiol-based antioxidant activity. […] Further, activity levels differed among the types and sources of albumins analyzed.

HEK-293 cells = assay: HEK-293 proliferation with rHSA and antioxidants, PRESTOBLUE; assay type: cell-based; conditions: FIG. 18A
Procedure: (§1) The antioxidants provided herein were assessed in compositions including albumin. Applicants investigated whether antioxidants may confer beneficial properties to cell cultures, in addition to reversing toxic features of albumins when used in combination. […] HEK-293 cells, when assessed with a PRESTOBLUE™ cell viability reagent (Thermo Fisher Scientific, Waltham, MA) according to the manufacturer's protocol.

neuronal cell = assay: Interactions between B27 supplement components and albumins, neuronal cell viability; assay type: cell-based; conditions: B27-supplemented media
Procedure: Next, interactions between different components of B27 supplement and various albumins were analyzed (FIGS. 1B-1J). The effect of these molecular interactions were also assessed for their effect on neuronal cell stability in cell culture. […] Further, X1 and X2 interactions with BSA became saturated when higher concentrations of BSA were titrated into culture. […] Results are illustrated in FIGS. 1B-1E. When a broad range of rHSA was tested in B27 supplemented cultures, it was shown that component X1 and competed with component X2 for rHSA binding.

HeLa cells = assay: HeLa proliferation with rHSA and antioxidants; assay type: cell-based; conditions: FIG. 18B
Procedure: as §1

In the case of “recombinant HSA derived from rice: recombinant human serum albumin derived from rice”, the SOD activity [1] is reported as “highest antioxidant activity”.
In the case of “plasma HSA: human serum albumin from plasma”, the total reducing power [2] is reported as “significantly higher level of reducing power compared to recombinant HSAs” and the “GSH based (thiol) antioxidant activity” value [3] is reported as “highest”.
With rHSA: recombinant human serum albumin the “toxicity to HEK-293 cells” value (HEK-293 cells) was “toxic”, the “effect on neuronal viability of albumin interaction with X3 (Linoleic acid) and X4 (Linolenic acid)” value (neuronal cell) was “negatively affected viability” and the “toxicity to HeLa cells” value (HeLa cells) was “toxic”.
